Reference: paper PMC3713097 (Chemical research in toxicology, 2013)

Tests used:
[1] = biological target: T1, P450 1B1 (Homo sapiens, UniProt Q16678, L432V)
T1 sequence (Q16678 1-543 L432V): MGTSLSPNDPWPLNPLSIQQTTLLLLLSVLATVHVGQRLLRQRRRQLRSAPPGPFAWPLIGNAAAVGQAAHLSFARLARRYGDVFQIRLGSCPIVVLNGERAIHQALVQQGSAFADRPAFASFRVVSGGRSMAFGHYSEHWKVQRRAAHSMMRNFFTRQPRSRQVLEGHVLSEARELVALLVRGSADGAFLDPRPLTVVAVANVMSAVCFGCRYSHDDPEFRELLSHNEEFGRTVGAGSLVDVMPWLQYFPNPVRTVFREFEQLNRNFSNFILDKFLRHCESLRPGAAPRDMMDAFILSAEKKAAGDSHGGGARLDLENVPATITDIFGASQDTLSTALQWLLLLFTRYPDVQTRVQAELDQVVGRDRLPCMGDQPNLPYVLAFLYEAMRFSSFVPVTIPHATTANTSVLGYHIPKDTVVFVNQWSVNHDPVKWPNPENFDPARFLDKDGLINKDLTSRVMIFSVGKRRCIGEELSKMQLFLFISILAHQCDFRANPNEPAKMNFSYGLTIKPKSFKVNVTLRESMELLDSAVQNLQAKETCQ

[2] = biological target: T2, P450 2A6 (Homo sapiens, UniProt P11509)
T2 sequence (P11509 1-494): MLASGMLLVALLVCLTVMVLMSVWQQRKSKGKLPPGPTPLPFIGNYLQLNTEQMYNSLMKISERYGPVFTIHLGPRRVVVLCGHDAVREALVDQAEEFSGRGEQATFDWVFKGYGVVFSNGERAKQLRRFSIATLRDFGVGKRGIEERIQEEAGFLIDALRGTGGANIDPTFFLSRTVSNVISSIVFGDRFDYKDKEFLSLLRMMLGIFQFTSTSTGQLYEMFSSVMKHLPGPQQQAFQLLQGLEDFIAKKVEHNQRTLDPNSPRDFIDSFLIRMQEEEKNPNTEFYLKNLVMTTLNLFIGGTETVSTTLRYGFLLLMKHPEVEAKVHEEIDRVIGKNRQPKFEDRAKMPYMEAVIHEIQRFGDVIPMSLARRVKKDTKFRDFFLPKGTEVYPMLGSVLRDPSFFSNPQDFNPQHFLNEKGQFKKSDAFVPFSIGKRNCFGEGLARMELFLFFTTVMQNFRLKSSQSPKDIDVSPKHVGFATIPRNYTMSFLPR

[3] = biological target: T3, human P450 2A13 (Homo sapiens, UniProt Q16696)
T3 sequence (Q16696 31-494 limits assumed): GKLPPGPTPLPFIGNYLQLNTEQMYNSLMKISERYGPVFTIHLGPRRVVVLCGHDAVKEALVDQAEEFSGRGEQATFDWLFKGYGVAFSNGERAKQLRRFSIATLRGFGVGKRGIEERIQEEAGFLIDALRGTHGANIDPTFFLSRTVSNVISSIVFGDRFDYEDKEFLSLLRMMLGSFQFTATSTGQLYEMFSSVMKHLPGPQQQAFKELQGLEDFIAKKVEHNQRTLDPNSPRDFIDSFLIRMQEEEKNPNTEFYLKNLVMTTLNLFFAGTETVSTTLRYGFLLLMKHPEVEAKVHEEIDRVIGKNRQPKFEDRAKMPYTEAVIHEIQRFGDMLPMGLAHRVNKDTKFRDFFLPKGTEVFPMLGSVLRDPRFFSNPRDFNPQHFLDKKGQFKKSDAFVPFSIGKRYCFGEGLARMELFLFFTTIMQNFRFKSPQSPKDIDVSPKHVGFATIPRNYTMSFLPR

Substance: 2-amino-3,5-dimethylimiidazo[4,5-f]quinoline [MeIQ]
- activation of procarcinogens umu gene expression [1]: 601 ± 59 units/min/nmol P450
- activation of procarcinogens umu gene expression [2]: 350 ± 44 units/min/nmol P450
- activation of procarcinogens umu gene expression [3]: 260 ± 30 units/min/nmol P450
